Patent US9289381B2, “Stabilization and storage of biological pharmaceutical compositions” (The University of North Carolina at Charlotte, priority 2009, dated 2016)

Legend:
[1] = test system: metastatic renal cell cancer (RCC) and malignant melanoma; details: cited from earlier work
[2] = Circular dichroism of IL-2: secondary structure and melting temperature (Example 5); assay type: physicochemical
[3] = cited from earlier work
[4] = pH-buffered
[5] = in vivo, iv; cited from earlier work
[6] = IL-2 in 30 mM CDHP, pH 7.40, 25° C.
[7] = IL-2 in 30 mM CDHP, rescanned after temperature scan
[8] = IL-2 in 30 mM NaH2PO4, pH 7.40, 25° C.
[9] = IL-2 in 30 mM NaH2PO4, rescanned after temperature scan
[10] = IL-2 in 185 mM CDHP, pH 7.40, 25° C.
[11] = IL-2 in 185 mM CDHP, rescanned after temperature scan
[12] = IL-2 in 680 mM CDHP, pH 7.40, 25° C.
[13] = IL-2 in 680 mM CDHP, rescanned after temperature scan

IL-2: Interleukin-2, a single 133 amino acid polypeptide of molecular weight 15.5 kDa; lyophilized IL-2, human (GenScript) in Example 5
patients with durable cancer remission ([1]; high-dose bolus rIL-2 i.v. (Sparano 1993)): 5-10% | patients with disease regression ([1]; stage IV metastatic melanoma, systemic i.v.): 15-20% | increase of Tm ([2]; 680 mM CDHP vs 30 mM NaH2PO4): 12.5 °C | Secondary Structure Content, Turns [2, 6]: 0.17 | Secondary Structure Content, Unordered [2, 6]: 0.23 | Secondary Structure Content, α-Helix [2, 6]: 0.42 | Secondary Structure Content, β-Sheet [2, 6]: 0.18 | Rescan, % Change, Turns [2, 7]: 6% | Rescan, % Change, Unordered [2, 7]: 70% | Rescan, % Change, α-Helix [2, 7]: −43% | Secondary Structure Content, Turns [2, 8]: 0.17 | Secondary Structure Content, Unordered [2, 8]: 0.30 | Secondary Structure Content, β-Sheet [2, 8]: 0.13 | Secondary Structure Content, α-Helix ([2]; IL-2 in 30 mM NaH2PO4, pH 7.40, 25° C., CDSSTR reference set 7): 0.40 | Rescan, % Change, Turns [2, 9]: 6% | Rescan, % Change, β-Sheet [2, 9]: 54% | Rescan, % Change, α-Helix ([2]; IL-2 in 30 mM NaH2PO4, rescanned at 25° C. after temperature scan): −40% | Secondary Structure Content, Turns [2, 10]: 0.17 | Secondary Structure Content, Unordered [2, 10]: 0.19 | Secondary Structure Content, α-Helix [2, 10]: 0.47 | Secondary Structure Content, β-Sheet [2, 10]: 0.19 | Rescan, % Change, Turns [2, 11]: 18% | Rescan, % Change, Unordered [2, 11]: 116% | Rescan, % Change, α-Helix [2, 11]: −66% | Rescan, % Change, β-Sheet [2, 11]: 32% | Secondary Structure Content, Turns [2, 12]: 0.13 | Secondary Structure Content, Unordered [2, 12]: 0.16 | Secondary Structure Content, α-Helix [2, 12]: 0.53 | Secondary Structure Content, β-Sheet [2, 12]: 0.17 | Rescan, % Change, Turns [2, 13]: 38% | Rescan, % Change, Unordered [2, 13]: 181% | Rescan, % Change, α-Helix [2, 13]: −68% | Rescan, % Change, β-Sheet [2, 13]: 24% | appearance after thermal scan ([2]; IL-2 solutions with 185 and 680 mM CDHP): macroscopically observable precipitates | Tm determined calorimetrically ([3]; 1 mg/mL IL-2 in 20 mM sodium phosphate, 150 mM NaCl, pH 7.5 (Wang, 2008)): 66 °C | temperature of irreversible denaturation and aggregation in solution ([3]; Sasaoki 1992): > 44 °C | IL-2 melting (unfolding) temperature Tm ([4]; with 30 mM CDHP): 52.3 °C | IL-2 melting (unfolding) temperature Tm ([4]; without C-DHP): 53.9 °C | plasma half-life, initial elimination phase [5]: 7 to 14 min

Like-named read-outs stand apart in the source and are kept apart here.
